# Reference: PubChem BioAssay AID1347075 (National Center for Advancing Translational Sciences (NCATS), 2019)
# Only a part is listed here, and it is no random draw. Records with an inconclusive call do not appear. Entries that show only a call come without a potency. Activity calls are given as the source filed them. Calls follow the shape of the dose curve; as a rule, active = well fitted cell-killing curve with a large enough effect; inconclusive = small, poorly fitted or top-dose-only effect, or effect the other way; inactive = flat fitted curve, though single readings scatter.
# Assay: qHTS assay for MDR1-selective chemotherapeutics: Primary screen using the parental adenocarcinoma cell KB-3-1; also: nearly all actives have a fitted effect of over 60% in size
# Conditions: KB-3-1 viability, CellTiter-Glo ATP luminescence, 72 h; series mostly up to 46.1 µM
# Source text: A prime difficulty in effectively treating cancer is the development of cellular resistance to multiple structurally unrelated anticancer drugs, a phenomenon known as multidrug resistance (MDR). […] Numerous strategies to overcome P-gp-mediated MDR have been explored, including the design of drugs that evade recognition and efflux, and development of inhibitors to block efflux and restore drug accumulation. […] An alternative approach is to exploit resistance by identifying drugs that target MDR cells over the non-resistant parental cells from which they were selected. […] The development of MDR1-selective agents represents a new strategy for resolving multidrug resistance, as it remains a long-standing clinical challenge for cancer chemotherapy.
# Our goal is to identify compounds that selectively kill P-gp-expressing MDR cells. We will identify MDR1-selective compounds by comparing toxicity of compounds in the screening library against parental, drug-naive (KB-3-1) adenocarcinoma cells as well as their drug-selected MDR sub-line (KB-V1). The differential toxicity of compounds against these two cell lines will be used to identify MDR1-selective compounds, whose cytotoxicity is potentiated, rather than diminished, by P-gp expression. This assay will be utilized to conduct a quantitative high-throughput screen (qHTS) in collaboration with the NIH Chemical Genomics Center to identify selective agents, and probe hits arising from the screen will be validated using secondary assays and characterized through a well-established follow-up research program. This screen was run against the entire NCGC library collection of about 400,000 compounds.
# NIH Molecular Libraries Probe Production Network [MLPCN]
# NIH Chemical Genomics Center [NCGC]
# PI: Michael Gottesman PhD, National Cancer Institute, NIH
# Briefly, 5 microL of media containing either KB-3-1 cells (columns 1-2, 4-48) are dispensed into Greiner white, treated solid-bottom 1536-well assay plates (media-only control is added to column 3). Compounds are then transferred via Kalypsys pin tool equipped with 1536-pin array (10 nL slotted pins, V&P Scientific, San Diego, CA). Following addition of compound, the plates are incubated at 37 degrees C for 72 hours. CellTiter-Glo (2.5 µL/well) is then added, and the plates are read in a ViewLux reader (Perkin-Elmer, clear luminescence filter, 1 second exposure, 1x binning) following a 10 minute incubation. All cells are dispensed in DMEM phenol-red free media containing 10% FBS.
# Library plates were screened starting from the lowest and proceeding to the highest concentration. Vehicle-only plates, with DMSO being pin-transferred to columns 5-48, will be inserted uniformly at the beginning and the end of each library in order to monitor and record any shifts in the background, which can be affected by reagent dispensers or loss in enzyme activity over time. Screening data will be corrected, normalized, and concentration-effect relationships will be derived by using publicly-available NCGC, NCATS curve fitting algorithms (http://ncgc.nih.gov/pub/openhts).
# Potency is read from the fitted curve at half-maximal effect.
row,Compound,Potency
1,O=[N+]([O-])c1ncn(CCn2ncnc2[N+](=O)[O-])n1,inactive
2,CC(C)(C)C(=O)NC(Sc1ccncn1)C(Cl)(Cl)Cl (stereo not drawn),inactive
3,O=C(O)CNc1ccc([As](=O)(O)O)cc1,inactive
4,COC(=O)C1(C)COP(=O)(Nc2ccccc2)OC1 (stereo not drawn),inactive
5,O=[N+]([O-])c1cccc(NC2=NCC(CBr)S2)c1 (stereo not drawn),inactive
6,Cc1cc(C=O)ccc1N(CCCl)CCCl,inactive
7,O=P1(N(CCCl)CCCl)OCCCS1 (stereo not drawn),inactive
8,O=P(/N=c1/nc(-c2ccccc2)n(-c2ccccc2)s1)(Nc1ccccc1)Nc1ccccc1,inactive
9,O=C(Nc1cc([As](=O)(O)O)ccc1O)c1ccccc1,inactive
10,CCN(/C(=N/P(=O)(N1CCOCC1)N1CCOCC1)N1CCOCC1)c1ccc(OC)cc1,inactive
11,Nc1ccc([As](=O)(O)c2ccc(N)cc2)cc1,inactive
12,CC1CCN(C(=O)Oc2c(Cl)cc(Cl)c3cccnc23)CC1,inactive
13,c1cc(-c2nn[nH]n2)ccc1-c1nn[nH]n1,inactive
14,COc1cc([N+](=O)[O-])c([N+](=O)[O-])cc1OC,inactive
15,CC(C)c1nc(Nc2ccccc2)n(P(=O)(N(C)C)N(C)C)n1,inactive
16,CC(C)=N/N=C(\N)N[N+](=O)[O-],inactive
17,CN(C)C(=O)OCCc1n(C)cc[n+]1C,inactive
18,COc1ccc(C2=NCC(CBr)S2)cc1 (stereo not drawn),inactive
19,Cc1ccc(NP(=O)(Oc2ccccc2)Oc2ccccc2)nc1,inactive
20,O=[N+]([O-])c1cc([N+](=O)[O-])c(CCNc2ccccc2)c([N+](=O)[O-])c1,inactive
21,O=[N+]([O-])c1cccc2n[nH]nc12,inactive
22,CC(=O)N1C2C3N(C(C)=O)C1C1N(C(C)=O)C(C(N1C(C)=O)N3C(C)=O)N2C(C)=O,inactive
23,Oc1ccccc1CNc1ccccn1,inactive
24,O=C(NC(Sc1ccncn1)C(Cl)(Cl)Cl)c1ccccc1 (stereo not drawn),inactive
25,Nc1cc(N)c2nonc2c1[N+](=O)[O-],inactive
26,CC(C)CC(=O)NC(Sc1ccc(Cl)cc1)C(Cl)(Cl)Cl (stereo not drawn),inactive

row,Compound,Potency
1,O=[N+]([O-])C1C(O)C(O)C([N+](=O)[O-])C(O)C1O (stereo not drawn),inactive
2,CN(C(=O)Cc1ccc(Cl)c(Cl)c1)[C@H]1CCCC[C@H]1N1CCCC1,inactive
3,Cc1ccc(N/C(=N/P(=O)(N2CCOCC2)N2CCOCC2)N2CCOCC2)cc1,inactive
4,CN1CCCC(OC(=O)C(c2ccccc2)c2ccccc2)C1 (stereo not drawn),inactive
5,Clc1ccc(Cl)c(NC2=NCC(CBr)S2)c1 (stereo not drawn),inactive
6,COc1ccccc1OP(=O)(Nc1ccc(C)cn1)Oc1ccccc1OC,inactive
7,Cc1ccc(OP(=O)(Nc2nccs2)Oc2ccc(C)cc2)cc1,inactive
8,Nc1c(O)cc([N+](=O)[O-])cc1[N+](=O)[O-],inactive
9,Nc1cccc2ccc([As](=O)(O)O)cc12,inactive
10,CCN(N=Nc1nonc1N)c1nonc1N,inactive
11,O=P(Nc1nc2ccc(Cl)cc2s1)(c1ccccc1)c1ccccc1,inactive
12,CN(C)P(=O)(N(C)C)n1c(Nc2ccccc2)nnc1-c1ccccc1,inactive
13,CC(=O)Nc1ccc([As](=O)(O)O)cc1,inactive
14,O=C(O)c1ccccc1[As](=O)(O)O,inactive
15,CCCC1OP(N)(=O)OCC1CC (stereo not drawn),inactive
16,Cc1cc(SC(NC(=O)c2ccc(F)cc2)C(Cl)(Cl)Cl)ncn1 (stereo not drawn),inactive
17,CCOP(=O)(Nc1ccccc1)OCC,inactive
18,Cc1ccc(NP(=O)(Oc2ccccc2F)Oc2ccccc2F)nc1,inactive
19,CN(C(=O)Cc1ccc(Cl)c(Cl)c1)[C@H]1CCCC[C@@H]1N1CCCC1,inactive
20,O=C(OC1CN2CCC1CC2)c1ccccc1 (stereo not drawn),inactive
21,CCC(=O)N1C2C3N(C(=O)CC)C1C1N(C(=O)CC)C(C(N1C(=O)CC)N3C(=O)CC)N2C(=O)CC,inactive
22,COC(=O)c1cc2c(s1)N=C(c1ccccc1)N(C)P2(=O)N1CCOCC1 (stereo not drawn),inactive
23,CC(=O)NC(SC(=S)N(CC(C)C)CC(C)C)C(Cl)(Cl)Cl (stereo not drawn),inactive
24,Cc1ccc(OP(=O)(Nc2ccccn2)Oc2ccc(C)cc2)cc1,inactive
25,CC(NC(=O)COC(=O)C(O)(c1ccccc1)c1ccccc1)c1ccccc1 (stereo not drawn),inactive
26,Cc1ccccc1OP(=O)(Nc1ccccn1)Oc1ccccc1C,inactive

row,Compound,Potency
1,CN(C)C(=O)Oc1noc2ccccc12,inactive
2,c1ccc(-c2nn[nH]n2)c(-c2nn[nH]n2)c1,inactive
3,Cc1ccc(NP(=O)(Oc2cccc(C)c2)Oc2cccc(C)c2)nc1,inactive
4,O=[N+]([O-])c1cc([N+](=O)[O-])c2nc[nH]c2c1,inactive
5,CCNC(=S)/N=C(\N)N[N+](=O)[O-],inactive
6,O=C(NC1CCS(=O)(=O)C1)NP(=S)(Oc1ccccc1)Oc1ccccc1 (stereo not drawn),inactive
7,O=P1(N(CCCl)CCCl)OCCC2CCCCN21 (stereo not drawn),inactive
8,Cc1ccccc1CN(C)C(=O)COC(=O)C(O)(c1ccccc1)c1ccccc1,inactive
9,C[C@H]1OP(=O)(Oc2ccccc2)C[C@@H]2O[C@@H]21 (stereo partly drawn),inactive
10,C[C@@H]1C=CCP(=O)(Oc2ccccc2)O1 (stereo partly drawn),inactive
11,CC(=O)c1ccc(N2CC2c2ccncc2)cc1 (stereo not drawn),inactive
12,COC(=O)C1(C)COP(=O)(NCc2ccccc2)OC1 (stereo not drawn),inactive
13,CC(=O)Nc1ccc([As](=O)(O)O)c(O)c1,inactive
14,CC(=O)Nc1ccc(Oc2c([N+](=O)[O-])cc([N+](=O)[O-])cc2[N+](=O)[O-])cc1,inactive
15,O=P1(Nc2nc3ccc(Cl)cc3s2)COc2ccccc2O1 (stereo not drawn),inactive
16,CCOc1ccc(C2=NCC(CBr)S2)cc1 (stereo not drawn),inactive
17,CC(C)(C)C(=O)NC(Sc1ccccc1)C(Cl)(Cl)Cl (stereo not drawn),inactive
18,CCc1cc(O)c([N+](=O)[O-])c(C)c1[N+](=O)[O-],inactive
19,COc1cccc([N+](=O)[O-])c1[N+](=O)[O-],inactive
20,CC(C)C(=O)NC(Sc1ccccc1)C(Cl)(Cl)Cl (stereo not drawn),inactive
21,O=P(Nc1nccs1)(c1ccccc1)c1ccccc1,inactive
22,c1nnnn1CCn1cnnn1,inactive
23,O=[As](O)(c1ccccc1)c1ccc(O)cc1,inactive
24,O=[N+]([O-])c1ccc(O)c(/C=N/Nc2ccc([N+](=O)[O-])cc2[N+](=O)[O-])c1,active: 5.8 µM
25,CC(=O)NC(SC(=S)N(C)C)C(Cl)(Cl)Cl (stereo not drawn),inactive
26,O=[N+]([O-])c1ncn(CCn2cnc([N+](=O)[O-])n2)n1,inactive
